Source: ChEMBL document CHEMBL1909525, “Synthesis and anticonvulsant activity of novel 2,6-diketopiperazine derivatives. Part 1: perhydropyrrole[1,2-a]pyrazines” (Eur J Med Chem, 2011)

Experiments:
Mus musculus = species on record: Mus musculus; assay: Protective index, ratio of TD50 for albino Carworth Farms No.1 mouse to ED50 for albino Carworth Farms No.1 mouse by 6Hz minimal clonic seizure test; type: functional
Procedure, shortened: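 Mouse 6 Hz (32 mA) quantification, compound given i.p. at the time of peak effect. Groups of at least eight mice at varied doses.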

[1] = Neurotoxicity in ip dosed albino Carworth Farms No.1 mouse assessed as motor impairment after 0.25 hrs by rotarod test; type: toxicity, organism-based; conditions: Carworth Farms No.1 (albino), in vivo
Procedure, shortened: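 Mouse quantification at the time of peak effect, compound given i.p. in 0.5% methylcellulose. Groups of at least eight mice received varied doses until at least two points fell between 100 and 0% response. PI = TD50/ED50 MES.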

Rattus norvegicus = species on record: Rattus norvegicus; assay: Protective index, ratio of TD50 for albino Sprague-Dawley rat to ED50 for albino Sprague-Dawley rat by maximal electroshock-induced seizure test; type: functional

SMILES | Ratio TD50/ED50 (Mus musculus) | TD50 at 0.25 h [1] [mg/kg] | Ratio TD50/ED50 (Rattus norvegicus)
CC[C@@H](C(N)=O)N1CCCC1=O | >25.8 |  | 
CCC1(c2ccccc2)C(=O)NC(=O)NC1=O [PHENOBARBITAL] |  | 69 | 6.7
